This is an account of results in patent publication US20260382623A1, “NOVEL COMPOUND FOR INHIBITING PROTEIN KINASES AND PHARMACEUTICAL COMPOSITION COMPRISING SAME” (published 2026).

One may read the GI50 as the concentration that inhibits growth by half.

One test relates to A549. The experiment in a line: Cell growth inhibition, A549 (CCK-8). Particulars: read-out: Cell growth inhibition GI50, A549, 72 hours.
The test system of another test is MDA-MB-231. The experiment in a line: Cell growth inhibition, MDA-MB-231 (CCK-8). Particulars: read-out: Cell growth inhibition GI50, MDA-MB-231, 72 hours.
Another test relates to HCI-H460. The experiment in a line: Cell growth inhibition, HCI-H460 (CCK-8). Particulars: read-out: Cell growth inhibition GI50, HCI-H460, 72 hours.
The subject of another test is AsPC-1. The test can be described thus: Cell growth inhibition, AsPC-1 (CCK-8). Particulars: read-out: Cell growth inhibition GI50, AsPC-1, 72 hours.
For a further test, the system named is SKOV3. The test can be described thus: Cell growth inhibition, SKOV3 (CCK-8). Particulars: read-out: Cell growth inhibition GI50, SKOV3, 72 hours.

`Cc1ccc(Nc2ncc3c(n2)C2(CC2)C(=O)N(c2cc(NC(=O)c4cccc(C(F)(F)F)c4)ccc2C)C3)cn1`: the GI50 in the test on A549 is below 5 µM.

On to `Cc1cn(-c2cc(C(=O)Nc3ccc(C)c(N4Cc5cnc(NC6CC6)nc5C5(CC5)C4=O)c3)cc(C(F)(F)F)c2)cn1`, for which the GI50 in the test on MDA-MB-231, in the test on HCI-H460, in the test with AsPC-1 and with SKOV3 was below 5 µM each time.
